# scFv variants of Ab-91 (heavy chain) against a SARS-CoV-2 spike peptide

The measurements come from Engelhart et al. 2022 (doi:10.1038/s41597-022-01779-4) through the FLAb antibody collection.

Target: peptide PDVDLGDISGINAS, taken from heptad repeat 2 (HR2) of SARS-CoV-2 spike.

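The starting antibody came from a phage panning campaign against this peptide. Library AAYL51 holds single substitutions and randomly drawn double and triple substitutions in the CDRs. The assay is AlphaSeq: two haploid yeast populations carry antibody and antigen on their surface. Mating (16 h, 30 °C) was followed by selection of diploids and sequencing of their barcodes. Each replicate has its own calibration line, from reference interactions of the BCL2 family. There are three technical replicates.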

Each scFv is VL, three GGGGS repeats, VH, as in the parent Ab-91, and differs from it in the CDRs of the heavy chain only.
VL: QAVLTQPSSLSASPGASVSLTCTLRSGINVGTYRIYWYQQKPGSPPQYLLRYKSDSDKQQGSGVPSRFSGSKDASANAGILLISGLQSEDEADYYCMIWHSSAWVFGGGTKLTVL
VH: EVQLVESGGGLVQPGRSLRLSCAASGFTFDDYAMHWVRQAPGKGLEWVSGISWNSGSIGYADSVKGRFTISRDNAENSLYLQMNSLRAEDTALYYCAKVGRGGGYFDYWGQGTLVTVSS

Positions count from residue 1 of the parent VH; G56C puts C in place of G.
This list gathers variants with a substitution at G56 (VH, numbered from residue 1).
Values are log10 of the apparent Kd in nM; lower means stronger binding.
The mean shown is taken over the replicates in which the pair was detected.
"ND" means that the variant was in the library but no mating with the target was seen in that replicate; the authors take this as a sign of poor binding, and no number exists.
As a blank, each scFv also met three strains without target: over library AAYL51, 21% of these pairings were detected, typically at 4.54 and seldom below 3.26.

Variant G56C/Y108S gave 1.37, 1.31, 0.90 (mean 1.19). Variant G26T/G56F showed 4.23, 6.31, ND (mean 5.27). With G56H/A61F/R101A the result was 2.91, 3.22, 3.49 (mean 3.20). For S52E/N54F/G56I, the assay gave ND, ND, 3.73. For N54P/G56L, the assay gave 6.01, 4.38, 5.25 (mean 5.22). Variant F27P/G56H/S63V gave 2.59, ND, 3.58 (mean 3.09).

Variant D31V/I51Q/G56T gave ND, ND, ND. With G26M/S52G/G56T the result was 4.50, 5.03, ND (mean 4.77). For S55R/G56P/G102H, the assay gave 5.29, ND, ND. With D31H/G56F/V64K the result was ND, ND, ND. For G56D, the assay gave ND, ND, ND. For G56A, the assay gave 1.45, 1.27, 0.78 (mean 1.17).

Variant G56Y/G104D showed 2.02, 2.05, 1.44 (mean 1.84). For G56C/I58A/G103P, the assay gave ND, ND, ND. With H35W/I51K/G56M the result was 4.49, 5.59, ND (mean 5.04). Variant M34N/G56N/F106V gave ND, 5.15, ND. Variant T28I/G56T/D107P showed ND, ND, ND. Variant G56K/Y60I/G100A gave 2.58, 2.79, 2.39 (mean 2.59).

With G56Q/K65S/G102K the result was ND, ND, ND. Variant G26L/G56P/S57N showed ND, ND, ND. For G56I/G59P/V64K, the assay gave ND, ND, ND. Variant W53M/G56H/Y60W gave ND, ND, ND. Variant G50I/G56C/S57I gave 5.17, 6.32, ND (mean 5.75). With G56F/D62F/G104S the result was ND, ND, ND.

Variant D31M/G56A/Y105N showed 1.48, 1.54, 0.96 (mean 1.33). Variant F29S/N54H/G56Q gave 6.30, 4.96, ND (mean 5.63). Variant G56I/A61H showed 2.29, 3.51, 2.14 (mean 2.65). With W53F/G56K/G104Y the result was 2.85, 2.62, 2.56 (mean 2.68). Variant G56C/I58P/R101C gave 4.45, 5.66, 4.38 (mean 4.83). Variant G56A/Y60A/Y108D gave ND, 3.90, ND.

Variant A33W/G56I/K65C showed 5.00, 3.77, ND (mean 4.39). With D31C/G50K/G56M the result was ND, ND, ND. Variant Y32D/G56H/R101T showed 5.40, 4.86, ND (mean 5.13). Variant G26I/G50T/G56C gave ND, ND, ND. For G56P, the assay gave ND, ND, ND. Variant N54V/G56W/D107M showed ND, ND, ND.

Variant N54K/G56F/G100L gave 5.50, ND, 4.33 (mean 4.91). With H35C/G56R/G104I the result was 5.02, ND, ND. Variant S55W/G56M/A61F gave ND, ND, ND. Variant W53N/G56N/S63H gave 4.80, 4.53, ND (mean 4.66). With F27N/G56D/G104K the result was 3.57, 3.48, 3.51 (mean 3.52).

2 of these entries, quoted again:

changes,"replicates, log10 nM",mean log10 Kd (nM)
G26T/G56F,"4.23, 6.31, ND",5.27
G56D,"ND, ND, ND",ND

In this assay the parent's reference entry averaged 1.86; its copy inside this library read 0.88.